Laboratory results reported in ChEMBL document CHEMBL1154779, “Synthesis and adrenolytic activity of 1-(1H-indol-4-yloxy)-3-(2-(2-methoxy phenoxy)ethylamino)propan-2-ol analogs and its enantiomers. Part 2” (Eur J Med Chem, 2009).

What was measured:
Rattus norvegicus [1] = test: Effect on heart rate in anesthetized Wistar rat assessed as QRS complex time at 1 mg/kg, iv after 15 mins by electrocardiography; assay type: functional
Rattus norvegicus [2] = test: Effect on heart rate in anesthetized Wistar rat assessed as QRS complex time at 1 mg/kg, iv after 1 min by electrocardiography; assay type: functional

## COc1ccccc1OCCNCC(O)COc1cccc2[nH]c3ccccc3c12 (configuration not stated) [CARVEDILOL]
Rattus norvegicus [1]
  Activity: 23.2 ms
Rattus norvegicus [2]
  Activity: 22 ms
